Read-outs that look alike come from different tables or passages of the source.
Columns and labels:
[1] = molecular target: OxaD (Penicillium oxalicum, UniProt A0A1B2TT15); conditions: read-out: KD(app)
[2] = molecular target: OxaD D63A (Penicillium oxalicum, UniProt A0A1B2TT15, D63A); assay: Anaerobic stopped-flow, reductive-half reaction, D63A mutant; assay type: biochemical, Penicillium oxalicum F30; conditions: read-out: KD(app)
[3] = OxaD 10 μM, 10 μM roquefortine C, NAD(P)H 0.0625–4 mM

The chains behind the UniProt entries cited, without tags or fusion partners. Where a name states a change or a piece, a line headed by the entry shows the natural chain unless it says otherwise.
UniProt A0A1B2TT15, entry or part of it: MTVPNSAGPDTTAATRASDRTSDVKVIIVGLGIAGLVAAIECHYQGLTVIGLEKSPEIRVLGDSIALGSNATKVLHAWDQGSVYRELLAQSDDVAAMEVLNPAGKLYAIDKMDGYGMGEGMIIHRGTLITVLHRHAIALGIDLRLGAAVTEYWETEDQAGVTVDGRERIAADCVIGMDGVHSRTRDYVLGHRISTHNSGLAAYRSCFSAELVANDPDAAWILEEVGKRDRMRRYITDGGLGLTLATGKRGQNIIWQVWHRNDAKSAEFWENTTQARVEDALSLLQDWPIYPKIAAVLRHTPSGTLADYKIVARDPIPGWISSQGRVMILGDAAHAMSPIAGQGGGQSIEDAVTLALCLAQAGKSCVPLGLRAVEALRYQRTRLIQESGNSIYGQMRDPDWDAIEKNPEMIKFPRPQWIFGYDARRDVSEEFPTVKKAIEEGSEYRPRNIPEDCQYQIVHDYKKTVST

Row | Substance | Kd [1, 3] [mM] | Kd ([1]; OxaD, No roquefortine C, not saturated at 4 mM NADPH) [mM] | Kd ([2]; D63A 10 μM, 10 μM roquefortine C) [mM] | Kd ([2]; D63A, No roquefortine C) [mM]
1 | NADH | 1.6 ± 0.03 |  |  | 
2 | NADPH | 0.52 ± 0.03 | ≥ 4 | 1.2 ± 0.3 | ≥ 4

Source: PMC11154958, “Mechanism of Nitrone Formation by a Flavin-Dependent Monooxygenase” (Biochemistry, 2024)
